Experimental data: patent US10844067B2, “Heterocyclic compounds as RET kinase inhibitors” (Cancer Research Technology Limited, priority 2016, dated 2020)

Legend:
[1] = test system: BaF3 cell lines expressing KDR; test: BaF3 cell assay, KDR (CellTiter-Glo viability); format: cell-based; conditions: Mus musculus, BaF3 cells expressing KDR, 48 hours
[2] = test system: Non-modified BaF3 cells (WT); test: BaF3 cell assay, non-modified (WT) cells with IL3; conditions: Mus musculus, BaF3, 48 h, read-out: BaF3 IC50, Non-modified BaF3 cells (WT) with IL3, 48 hours, CellTiter-Glo
[3] = test system: RET^V804M Cell; test: BaF3 cell assay, RET^V804M (CellTiter-Glo viability); format: cell-based; conditions: Mus musculus, RET^V804M cells, 48 hours

SMILES | IC50 [1] [µM] | IC50 [2] [µM] | IC50 [3] [µM]
Nc1ncnc2c1c(-c1cc3cccnc3[nH]1)nn2[C@H]1CC[C@H](NC(=O)C2CC2)CC1 [Example 36, N-(trans-4-(4-Amino-3-(1H-pyrrolo[2,3-b]pyridin-2-yl)-1H-pyrazolo[3,4-d]pyrimidin-1-yl)cyclohexyl)cyclopropanecarboxamide] | > 10 | 4.08 | –
Nc1ncnc2c1c(-c1[nH]c3ncccc3c1Cl)nn2C1CCCCC1 [Example 67, 3-(3-Chloro-1H-pyrrolo[2,3-b]pyridin-2-yl)-1-cyclohexyl-pyrazolo[3,4-d]pyrimidin-4-amine] | – | 3.16 | 0.335
CN(C)C1CCN(CCn2nc(-c3[nH]c4ncccc4c3Cl)c3c(N)ncnc32)CC1 [Example 77, 3-(3-Chloro-1H-pyrrolo[2,3-b]pyridin-2-yl)-1-(2-(4-(dimethylamino)piperidin-1-yl)ethyl)-1H-pyrazolo[3,4-d]pyrimidin-4-amine] | > 10 | > 10 | –
CC(C)n1nc(-c2[nH]c3ncccc3c2Cl)c2c(N)ncnc21 [Example 55, 3-(3-Chloro-1H-pyrrolo[2,3-b]pyridin-2-yl)-1-isopropyl-1H-pyrazolo[3,4-d]pyrimidin-4-amine] | 1.8 | 3.16 | –
Cn1nc(-c2[nH]c3ncccc3c2Cl)c2c(N)ncnc21 [Example 65, 3-(3-Chloro-1H-pyrrolo[2,3-b]pyridin-2-yl)-1-methyl-pyrazolo[3,4-d]pyrimidin-4-amine] | – | > 10 | 3.85
CC(C)n1nc(-c2cc3cccnc3[nH]2)c2c(N)ncnc21 [Example 37, 1-Isopropyl-3-(1H-pyrrolo[2,3-b]pyridin-2-yl)pyrazolo[3,4-d]pyrimidin-4-amine] | 1.37 | 4.01 | –
